Experimental data taken from patent US10202345B2, “Substituted azaspiro(4.5)decane derivatives” (priority 2014, dated 2019).

Chains of the proteins cited; added tags and fusions are not shown. Lines headed by an entry give the natural chain unless they say otherwise; changes in a name come on top.
UniProt P35372, whole entry, looked up: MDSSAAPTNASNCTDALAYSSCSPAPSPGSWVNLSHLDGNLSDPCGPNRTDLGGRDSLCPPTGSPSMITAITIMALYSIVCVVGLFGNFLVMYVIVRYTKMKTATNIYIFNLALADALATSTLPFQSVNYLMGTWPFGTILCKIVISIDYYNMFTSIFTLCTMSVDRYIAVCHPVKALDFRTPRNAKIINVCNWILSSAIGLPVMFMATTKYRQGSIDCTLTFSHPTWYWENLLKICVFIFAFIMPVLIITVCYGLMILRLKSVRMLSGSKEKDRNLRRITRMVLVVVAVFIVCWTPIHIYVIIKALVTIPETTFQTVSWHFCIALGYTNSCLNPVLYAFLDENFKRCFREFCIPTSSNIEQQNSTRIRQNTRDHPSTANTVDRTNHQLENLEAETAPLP
UniProt P41146: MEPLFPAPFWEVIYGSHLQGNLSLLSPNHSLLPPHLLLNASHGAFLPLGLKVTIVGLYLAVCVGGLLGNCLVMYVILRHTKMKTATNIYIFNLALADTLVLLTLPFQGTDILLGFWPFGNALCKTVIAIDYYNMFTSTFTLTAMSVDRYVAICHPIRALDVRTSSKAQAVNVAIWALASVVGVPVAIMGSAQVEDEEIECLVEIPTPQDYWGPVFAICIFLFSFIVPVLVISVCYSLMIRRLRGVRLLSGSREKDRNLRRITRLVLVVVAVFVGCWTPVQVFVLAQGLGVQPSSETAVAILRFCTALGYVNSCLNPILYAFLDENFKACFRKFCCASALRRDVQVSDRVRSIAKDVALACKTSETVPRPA

Tests used:
[1] = target: human μ opiate receptor (Homo sapiens, UniProt P35372); assay: μ opiate receptor binding assay with [3H]-naloxone (WGA-SPA beads); details: for Ki: read-out: Ki (μ) mean [μm], mean; for % inhibition (μ) [1 μM]: test concentration 1 μM
[2] = target: ORL1 receptor (Homo sapiens, UniProt P41146); assay: ORL1 receptor binding assay with 3H-nociceptin/orphanin FQ (WGA-SPA beads); details: for Ki: read-out: Ki (ORL1) mean, mean; for % inhibition (ORL1) [1 μM]: test concentration 1 μM

Row | Compound | Ki [1] [µM] | Ki [2] [µM] | % inhibition (ORL1) [1 μM] [2] [%] | % inhibition (μ) [1 μM] [1] [%] | % inhibition (μ) [1 μM] ([1]; 1 µM) [%] | % inhibition (ORL1) [1 μM] ([2]; 1 µM) [%]
1 | CN(C)C1(c2cccs2)CCC2(CCN(C(=O)C3CCC3)C2)CC1 (centres unmarked) | 0.00805 | 0.00845 | 73 |  |  | 
2 | CN(C)C1(c2cccs2)CCC2(CCN(C(=O)C(C)(C)C#N)C2)CC1 (centres unmarked) | 0.047 | 0.105 | 43.5 | 87 |  | 
3 | CN(C)C1(c2cccs2)CCC2(CCN(CCC3CC3)C2)CC1 (centres unmarked) | 0.0015 | 0.00145 | 98 | 99 |  | 
4 | CN(C)C1(c2ccccc2)CCC2(CCN(C(=O)C3CC3)C2)CC1 (centres unmarked) | 0.0205 | 0.02 | 71.5 | 89.5 |  | 
5 | CN(C)C1(c2ccccc2)CCC2(CCN(C(=O)C3(O)CC3)C2)CC1 (centres unmarked) | 0.0745 | 0.185 | 48.5 | 82.5 |  | 
6 | CCOC(C)CN1CC2(CCC(c3cccs3)(N(C)C)CC2)CC1=O (centres unmarked) | 0.0052 | 0.0021 | 95.5 | 101 |  | 
7 | CN(C)C1(c2ccccc2)CCC2(CC1)CC(=O)N(CCC1CCOCC1)C2 (centres unmarked) | 0.0047 | 0.013 | 94 | 98.5 |  | 
8 | Cc1ccc(C2(N(C)C)CCC3(CC2)CC(=O)N(CC2CCC2)C3)s1 (centres unmarked) | 0.0535 | 0.345 | 63 | 97 |  | 
9 | 1-[8-Dimethylamino-8-(5-fluorothiophen-2-yl)-3-azaspiro[4.5]decan-3-yl]-3-methoxy-3-methylbutan-1-one | 0.0004 | 0.0022 | 93.5 | 99.5 |  | 
10 | COCC1(C(=O)N2CCC3(CCC(c4cccs4)(N(C)C)CC3)C2)CCC1 (centres unmarked) | 0.00735 | 0.055 | 74 | 99.5 |  | 
11 | COC(C)(C)C(=O)N1CCC2(CCC(C3CCCC3)(N(C)C)CC2)C1 (centres unmarked) | 0.055 | 0.91 | 26 | 90 |  | 
12 | COCC1(C(=O)N2CCC3(CCC(c4ccc(Cl)s4)(N(C)C)CC3)C2)CC1 (centres unmarked) | 0.0115 | 0.355 | 37 | 97.5 |  | 
13 | CN(C)C1(c2cccs2)CCC2(CC1)CC(=O)N(CC1(C#N)CC1)C2 (centres unmarked) | 0.00135 | 0.00143 | 95.5 | 99.5 |  | 
14 | CN(C)C1(c2cccs2)CCC2(CCN(C(=O)CC(C)(C)C#N)C2)CC1 (centres unmarked) | 0.0013 | 0.00225 | 96 | 98.5 |  | 
15 | COC(C)CN1CC2(CCC(c3cccs3)(N(C)C)CC2)CC1=O (centres unmarked) | 0.00715 | 0.0092 | 88.5 | 97.5 |  | 
16 | CN(C)C1(C2CCCC2)CCC2(CCN(C(=O)C3CCC3)C2)CC1 (centres unmarked) | 0.0052 | 0.028 | 67.5 | 97 |  | 
17 | CCCCN1CCC2(CCC(Cc3ccccc3)(N(C)C)CC2)C1 (single isomer, unassigned) | 1110 |  | 21.67 | 61.5 |  | 
18 | CN(C)C1(c2ccccc2)CCC2(CCN(CCC3CCOC3)C2)CC1 (centres unmarked) | 0.0039 | 0.0067 | 94 | 97.5 |  | 
19 | CNC1(c2ccccc2)CCC2(CCN(C(=O)CC3CC3)C2)CC1 (centres unmarked) | 0.00265 | 0.0112 | 73.5 | 98.5 |  | 
20 | COCC1(C(=O)N2CCC3(CCC(c4ccc(F)s4)(N(C)C)CC3)C2)CCC1 (centres unmarked) | 0.0099 | 0.135 |  | 94.5 |  | 
21 | CN(C)C1(c2cccs2)CCC2(CC1)CC(=O)N(CCC1CCOCC1)C2 (centres unmarked) | 0.0037 | 0.013 | 95.5 | 99 |  | 
22 | CN(C)C1(c2cccs2)CCC2(CCN(C(=O)CC3CCOCC3)C2)CC1 (centres unmarked) | 0.0016 | 0.0098 | 93.5 | 98.5 |  | 
23 | CN(C)C1(C2CCCC2)CCC2(CC1)CC(=O)N(CC1CCC1)C2 (centres unmarked) | 0.002 | 0.00745 | 0 | 0 |  | 
24 | (8-Benzyl-3-butyl-3-azaspiro[4.5]decan-8-yl)-dimethylamine [10] | 0.41 | 2.02 |  |  | 67 | 27.67
25 | CN(C)C1(c2cccs2)CCC2(CCN(CCC(C)(C)C#N)C2)CC1 (centres unmarked) | 0.0012 | 0.00875 | 90.5 | 100 |  | 
26 | CN(C)C1(c2ccccc2)CCC2(CCN(CCCC3CC3)C2)CC1 (centres unmarked) | 0.00145 | 0.00063 | 95 | 98 |  | 
